These results are taken from ChEMBL document CHEMBL1134564, “Development of serine protease inhibitors displaying a multicentered short (<2.3 A) hydrogen bond binding mode: inhibitors of urokinase-type plasminogen activator and factor Xa” (J Med Chem, 2001).

Protein sequences, listed by entry. Tags and fused reporters are not part of them. Residues count along the entry.
UniProt P00747, 97-580 limits assumed: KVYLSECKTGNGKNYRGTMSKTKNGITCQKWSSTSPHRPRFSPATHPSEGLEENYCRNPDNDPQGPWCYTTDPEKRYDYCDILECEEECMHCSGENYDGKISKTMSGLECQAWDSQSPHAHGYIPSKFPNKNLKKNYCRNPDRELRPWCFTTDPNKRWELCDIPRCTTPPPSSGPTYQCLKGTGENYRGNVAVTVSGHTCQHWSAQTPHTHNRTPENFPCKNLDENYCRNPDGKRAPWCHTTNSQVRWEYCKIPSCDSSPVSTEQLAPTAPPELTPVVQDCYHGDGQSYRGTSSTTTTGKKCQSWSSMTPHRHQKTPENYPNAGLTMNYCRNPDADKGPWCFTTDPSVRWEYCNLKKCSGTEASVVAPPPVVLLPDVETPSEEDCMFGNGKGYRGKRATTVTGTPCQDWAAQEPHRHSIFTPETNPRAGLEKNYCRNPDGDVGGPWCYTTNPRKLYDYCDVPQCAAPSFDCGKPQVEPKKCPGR
UniProt P00747, 581-810 limits assumed: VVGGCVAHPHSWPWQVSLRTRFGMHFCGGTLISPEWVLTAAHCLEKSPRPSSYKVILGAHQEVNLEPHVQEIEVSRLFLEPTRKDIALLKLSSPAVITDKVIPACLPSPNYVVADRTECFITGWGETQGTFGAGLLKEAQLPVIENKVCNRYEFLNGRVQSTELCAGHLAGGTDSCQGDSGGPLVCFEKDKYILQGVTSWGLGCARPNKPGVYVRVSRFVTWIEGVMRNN
UniProt P07477, whole entry: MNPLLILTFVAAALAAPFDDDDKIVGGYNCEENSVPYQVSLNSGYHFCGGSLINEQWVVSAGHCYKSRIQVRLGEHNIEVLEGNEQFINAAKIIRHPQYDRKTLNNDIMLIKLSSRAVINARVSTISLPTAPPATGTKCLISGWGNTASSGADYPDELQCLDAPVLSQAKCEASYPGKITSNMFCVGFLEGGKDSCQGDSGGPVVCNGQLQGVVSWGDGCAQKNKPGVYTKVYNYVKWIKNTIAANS

In assay [1] the target is T1, Urokinase-type plasminogen activator (Homo sapiens, UniProt P00749). As to the kind of experiment: ComInhibition of Human Serine Protease Urokinase Plasminogen Activator (u-PA).
For assay [2], the target named is Plasminogen (Homo sapiens, UniProt P00747). In words: Inhibition of Human Serine Protease Plasmin.
Assay [3] concerns the target T1, Urokinase-type plasminogen activator.
Assay [4] has as its target Serine protease 1 (Homo sapiens, UniProt P07477). In words: Inhibition of Human Serine Protease Trypsin.

Usually Ki stands for the dissociation constant of the complex between target and ligand, obtained from inhibition or displacement. Read a low Ki as a stronger hold on the target.

Regarding `N=C(N)c1ccc2oc(-c3cccc(-c4ccccc4)c3O)cc2c1`, the Ki in assay [1] worked out at 550 nM; in assay [2], 5500 nM.
For `N=C(N)c1ccc2nc(-c3cccc(-c4ccccc4)c3O)[nH]c2c1`, the Ki in assay [3] was determined as 400 nM.
Turning to `N=C(N)c1ccc2[nH]c(-c3cccc(Br)c3O)nc2c1`, the Ki in assay [1] came to 250 nM.
Take `N=C(N)c1ccc2nc(-c3cc(F)ccc3O)[nH]c2c1`: the Ki in assay [4] stood at 10000 nM.
